Assay results: BindingDB's records for doi:10.1021/jm0009181 (National Center For Genetic Engineering and Biotechnology …, 2000)

Chains of the proteins cited; added tags and fusions are not shown.
UniProt A7UD81, whole entry: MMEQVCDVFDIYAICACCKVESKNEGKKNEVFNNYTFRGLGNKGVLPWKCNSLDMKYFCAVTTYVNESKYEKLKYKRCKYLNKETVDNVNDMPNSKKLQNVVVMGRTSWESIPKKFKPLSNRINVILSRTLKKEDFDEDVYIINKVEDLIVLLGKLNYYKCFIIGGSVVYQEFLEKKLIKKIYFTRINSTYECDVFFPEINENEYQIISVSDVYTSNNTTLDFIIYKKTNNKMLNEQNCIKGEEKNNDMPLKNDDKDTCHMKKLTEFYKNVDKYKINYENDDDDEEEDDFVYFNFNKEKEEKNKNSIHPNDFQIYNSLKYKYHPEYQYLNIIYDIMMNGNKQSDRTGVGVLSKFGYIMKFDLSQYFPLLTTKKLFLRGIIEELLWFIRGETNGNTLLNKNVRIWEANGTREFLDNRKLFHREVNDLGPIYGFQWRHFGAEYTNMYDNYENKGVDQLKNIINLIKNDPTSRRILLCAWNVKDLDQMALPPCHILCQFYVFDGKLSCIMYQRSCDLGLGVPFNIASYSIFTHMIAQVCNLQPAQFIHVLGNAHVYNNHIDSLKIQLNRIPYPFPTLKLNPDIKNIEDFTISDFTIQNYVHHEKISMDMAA

Molecular target: Bifunctional dihydrofolate reductase-thymidylate synthase (Plasmodium falciparum, UniProt A7UD81)
Experiment: Evaluated for inhibition constant (Ki wt) against Wild-type dihydrofolate reductase of Plasmodium falciparum

pKi: 8.43
Structure (SMILES): CC1(C)N=C(N)N=C(N)N1c1cccc(Cl)c1 [1-(3-chlorophenyl)-6,6-dimethyl-1,6-dihydro-1,3,5-triazine-2,4-diamine]

pKi: −log10 of the molar value.
